Assay results reported in US6812251B2, “Taurine compounds” (priority 2001, dated 2004).

Tests used:
[1] = test system: DU-145 human prostate tumor cells; assay: Flow cytometry (propidium iodide) apoptosis, sub-G0/G1 peak; type: cell-based; settings: DU-145 cells, 50 μM, 24 h
[2] = test system: PA1 human ovarian tumor cells; assay: Tumor cell growth inhibition, PA1 cells (cell counting); type: cell-based; settings: read-out: IC50 (concentration required to inhibit cell number by 50%), 5-100 μM, 3 d (72 h) exposure, electronic cell counting, mean ± SE
[3] = test system: DU-145 human prostate tumor cells; assay: Western blot of PARP cleavage and procaspase 8a/b; settings: DU-145 cells, 50 μM
[4] = test system: Escherichia coli bacterial cells; assay: Bacterial cell growth inhibition (optical density at 600 nm); settings: E. coli in LB, concentrations ≦1000 μM, OD hourly up to 6 hour

[N-]=[N+]=NCCS(=O)(=O)N=[N+]=[N-]
% apoptosis (sub-G0/G1 peak area) [1]: 38%
level of apoptosis greater than that in taurolidine-treated cells [1]: at least 10%
level of apoptosis relative to taurolidine-treated cells [1]: greater than 2 fold
IC50 [2]: 4.9 µM
cytotoxic potency and speed compared to taurolidine [3]: more potent cytotoxic agents and exert cytotoxity more rapidly compared to taurolidine
induction of apoptotic death (flow cytometry and Western blot: PARP 85 kD fragment, reduced procaspase 8a/b) ([3]; 12 h): induce apoptotic death of tumor cells
bacterial cell growth inhibitory activity [4]: potent bacterial cell growth inhibitory activity
